## Antibody variant affinities, Ab-95 light chain, assay 2

The target is the same throughout: PDVDLGDISGINAS, from the HR2 region of SARS-CoV-2 spike.

Each scFv is VH, three GGGGS repeats, VL, as in the parent Ab-95, and differs from it in the CDRs of the light chain only.
VH: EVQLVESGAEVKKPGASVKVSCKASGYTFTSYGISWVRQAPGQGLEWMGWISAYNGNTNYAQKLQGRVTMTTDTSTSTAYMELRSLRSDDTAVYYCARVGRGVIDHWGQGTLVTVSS
VL: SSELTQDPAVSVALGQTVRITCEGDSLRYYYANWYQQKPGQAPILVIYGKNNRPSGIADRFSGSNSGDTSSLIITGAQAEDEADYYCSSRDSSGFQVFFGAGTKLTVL

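Phage display of a naive human antibody library on the peptide gave the parent. AAYL52 was designed without a model: most single CDR substitutions and a random sample of double and triple ones. Affinity was read by AlphaSeq, a pooled yeast mating assay with surface-displayed partners. Pairs that bind mate more often; barcode pairs of the diploids are counted by sequencing. Scores were corrected for input abundance and mapped to Kd with protein pairs of known affinity run in the same pool. The assay was run in three technical replicates.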

Changes read parent residue, position, new residue, counted from the first residue of the VL shown. Values are log10 of the apparent Kd in nM; lower means stronger binding. The mean shown is taken over the replicates in which the pair was detected. "not detected" marks a missing value. The strain was present, yet no cells mated with the target were sequenced in any replicate, which points to weak or no binding. Empty control strains, which show no peptide, gave a signal in 28% of pairings with library AAYL52; the median was 3.91 and 95% of these signals were weaker than 2.90. No background was subtracted. Also given: how often the same scFv was detected with the empty control strains.

mean log10 Kd (nM) | seen in | control signals | changes
2.68 | 3 of 3 | 3 of 9 | K50P+R90A+Q96E
2.60 | 3 of 3 | 2 of 9 | S26D+Y29N+S92M
4.32 | 2 of 3 | 2 of 9 | D25R+A32W+S55V
2.13 | 3 of 3 | 3 of 9 | S88M+S89I+G94H
5.83 | 1 of 3 | 2 of 9 | N51Q+N52A+Q96I
4.23 | 1 of 3 | 2 of 9 | N33D+N52D+R53V
3.96 | 2 of 3 | 2 of 9 | Y29L+D91A+S92V
4.25 | 3 of 3 | 6 of 9 | R28T+Y31W+N51Y
5.15 | 2 of 3 | 2 of 9 | R90M+G94Y
2.41 | 3 of 3 | 1 of 9 | S26M+S89V+Q96N
4.61 | 2 of 3 | 4 of 9 | G24D+Y29V+S89R
not detected | 0 of 3 | 3 of 9 | G24R+N33V+S55M
2.53 | 3 of 3 | 2 of 9 | S26P+P54A
not detected | 0 of 3 | 1 of 9 | G49E+S92D+F95L
2.87 | 3 of 3 | 1 of 9 | D25V+S55Y+V97Q
3.06 | 3 of 3 | 4 of 9 | R28E+N52T+V97R
3.62 | 1 of 3 | 6 of 9 | E23H+S93V+G94V
1.52 | 3 of 3 | 2 of 9 | D25C+K50E+S89C
3.21 | 1 of 3 | 1 of 9 | A32Y+N52K+S92I
3.51 | 1 of 3 | 2 of 9 | N33I+S88G+D91V
2.95 | 3 of 3 | 4 of 9 | D25Q+S88M+Q96I
3.93 | 2 of 3 | 2 of 9 | L27M+R28N+N33C
4.92 | 1 of 3 | 4 of 9 | G24D+S26P+Y31H
2.58 | 3 of 3 | 3 of 9 | S26P+S93Y+Q96T
not detected | 0 of 3 | 1 of 9 | N33E+N51I+S92G
4.29 | 2 of 3 | 2 of 9 | Y31I+A32W+R90E
3.03 | 2 of 3 | 4 of 9 | G24V+Y29P+G49N
4.47 | 3 of 3 | 2 of 9 | D25M+N52R+F98H
3.71 | 1 of 3 | 5 of 9 | D25Y+G94T+F98C
3.47 | 1 of 3 | 1 of 9 | D25M+Y29W+S92M
not detected | 0 of 3 | 0 of 9 | G49I+R53C+S88G
not detected | 0 of 3 | 0 of 9 | N52V+P54E+D91Q
not detected | 0 of 3 | 0 of 9 | G49N+K50I+V97K
not detected | 0 of 3 | 3 of 9 | S26W+R28F+R90T
4.82 | 1 of 3 | 4 of 9 | Y29L+A32N+S93I
2.67 | 3 of 3 | 4 of 9 | S55E+S92A+S93E
3.55 | 1 of 3 | 0 of 9 | Y31N+A32M+P54I
4.61 | 3 of 3 | 4 of 9 | N52V+S89V+V97S
1.44 | 3 of 3 | 8 of 9 | Y30E+N51G+P54S
3.17 | 3 of 3 | 6 of 9 | A32T+S55T+D91I
2.81 | 3 of 3 | 5 of 9 | D25F+S89Q+V97D
5.36 | 1 of 3 | 3 of 9 | E23L+N33E+S88G
4.50 | 2 of 3 | 0 of 9 | Y29N+G49F+N52R
2.88 | 3 of 3 | 4 of 9 | D25C+L27V+S89Q
3.53 | 2 of 3 | 1 of 9 | D25Q+N51V+D91C
not detected | 0 of 3 | 0 of 9 | Y31L+R90V+F95A
3.70 | 3 of 3 | 4 of 9 | P54D+F95P
3.74 | 2 of 3 | 8 of 9 | L27T+G49F+F98S
2.55 | 3 of 3 | 4 of 9 | L27Y+Y30W+Q96Y
3.20 | 3 of 3 | 4 of 9 | E23L+G24M+Y31I
3.94 | 3 of 3 | 6 of 9 | S26C+N51H+R53I
2.64 | 3 of 3 | 3 of 9 | Y30N+K50T+S89K
4.49 | 2 of 3 | 4 of 9 | Y29E+N33E+N51S
3.20 | 3 of 3 | 2 of 9 | Y31I+R90W+S93V
2.77 | 3 of 3 | 2 of 9 | Y31R+R53A+R90W
2.68 | 3 of 3 | 5 of 9 | G24W+Y29W+A32L
3.18 | 2 of 3 | 0 of 9 | G49E+P54R+S92N
3.05 | 1 of 3 | 2 of 9 | E23G+R28G+R90G
1.57 | 3 of 3 | 4 of 9 | Y30M+N33L+K50T
3.87 | 1 of 3 | 2 of 9 | R28T+D91Y+F98P
4.04 | 3 of 3 | 1 of 9 | P54L+S89R+F98L
5.19 | 2 of 3 | 4 of 9 | S26R+G49H+S92M
4.28 | 1 of 3 | 0 of 9 | E23T+D91M
3.42 | 2 of 3 | 2 of 9 | A32S+N51R+P54T
not detected | 0 of 3 | 1 of 9 | Y31C+S92Q+V97H
4.19 | 2 of 3 | 1 of 9 | R28W+S55V+G94N
4.64 | 1 of 3 | 2 of 9 | R28M+N51M+S88E
2.93 | 3 of 3 | 3 of 9 | Y30D+A32M+S93D
3.20 | 2 of 3 | 3 of 9 | G24E+K50L+S92W
4.10 | 1 of 3 | 3 of 9 | L27M+N33L+K50Q
3.48 | 2 of 3 | 5 of 9 | G24W+P54A+V97G
4.76 | 2 of 3 | 4 of 9 | S26D+S88G+F98I
3.68 | 2 of 3 | 2 of 9 | D25M+D91F
4.37 | 1 of 3 | 2 of 9 | D25H+N52C+V97D
not detected | 0 of 3 | 1 of 9 | E23T+N33G+R53S
3.99 | 1 of 3 | 2 of 9 | A32C+G49C+S88D

11 of these entries, quoted again:

| changes | mean log10 Kd (nM) | seen in | control signals |
|---|---|---|---|
| R28M+N51M+S88E | 4.64 | 1 of 3 | 2 of 9 |
| Y31R+R53A+R90W | 2.77 | 3 of 3 | 2 of 9 |
| G24R+N33V+S55M | not detected | 0 of 3 | 3 of 9 |
| D25V+S55Y+V97Q | 2.87 | 3 of 3 | 1 of 9 |
| G49N+K50I+V97K | not detected | 0 of 3 | 0 of 9 |
| S26P+P54A | 2.53 | 3 of 3 | 2 of 9 |
| E23L+G24M+Y31I | 3.20 | 3 of 3 | 4 of 9 |
| Y29L+A32N+S93I | 4.82 | 1 of 3 | 4 of 9 |
| D25C+L27V+S89Q | 2.88 | 3 of 3 | 4 of 9 |
| D25F+S89Q+V97D | 2.81 | 3 of 3 | 5 of 9 |
| N33D+N52D+R53V | 4.23 | 1 of 3 | 2 of 9 |

For reference, the parent read 2.31 as the reference entry and 2.25 as a member of this library.

Source: Engelhart et al. 2022 (doi:10.1038/s41597-022-01779-4), MIT Lincoln Laboratory and A-Alpha Bio; data file from the FLAb repository.